Data reported in patent US9512138B2, “Compositions and methods for treating cancer” (The Regents of the University of California, priority 2012, dated 2016).

Experiments:
[1] = tested on: SKBR3/TZR cells; assay: Proliferation of trastuzumab-resistant SKBR3/TZR cells; format: cell-based, human; settings: media containing 100 mg/mL trastuzumab, 2-5 days
Description: Assays for Tumor Cell Proliferation. Breast tumor cells were be grown in RPMI 1640 media with 10% heat-inactivated FBS (except for TMR and TZR cells as noted above). For estrogen-free conditions, medium were changed 48 h before studies to phenol-red free RPMI 1640 with 1% dextran-coated, charcoal-treated (DCC) FBS, then treated with selected reagents. Cell counts and viability tests (Trypan blue) will be done every 24 hr for […]. After 48-72 hr, proliferation was assessed by cell counts.
Activation of NFkB in HER2-overexpressing breast tumor cells resistant to Herceptin (trastuzumab) and effects of parthenolide analogues. The human breast cancer cell line SKBR3 (ATCC) was obtained from the American Type Culture Collection (ATCC). Unless otherwise stated, monolayer cultures of SKBR3 were maintained in Dulbeccos' Modified Eagle's Media (DMEM):F12 medium with 10% FBS. The cell lines overexpressed the HER2 gene product. Trastuzumab-resistant clones SKBR3/TZR were generated from SKBR3 cells as detailed previously (65). In brief, to select trastuzumab-resistant clones, SKBR3 cells were plated in 24-well plates at low density and maintained in growth medium containing 10, 50, and 100 mg/mL of trastuzumab. SKBR3/TZR cells were maintained in growth medium containing 100 mg/mL of trastuzumab. SKBR3/TZR cells were repeatedly confirmed as insensitive to trastuzumab. […]

[2] = tested on: SKBR3 parental (control) cells; assay: Proliferation and HER2 overexpression of SKBR3 parental cells; format: cell-based, human
Text: Activation of NFkB in HER2-overexpressing breast tumor cells resistant to Herceptin (trastuzumab) and effects of parthenolide analogues. The human breast cancer cell line SKBR3 (ATCC) was obtained from the American Type Culture Collection (ATCC). Unless otherwise stated, monolayer cultures of SKBR3 were maintained in Dulbeccos' Modified Eagle's Media (DMEM):F12 medium with 10% FBS. The cell lines overexpressed the HER2 gene product. Trastuzumab-resistant clones SKBR3/TZR were generated from SKBR3 cells as detailed previously (65). In brief, to select trastuzumab-resistant clones, SKBR3 cells were plated in 24-well plates at low density and maintained in growth medium containing 10, 50, and 100 mg/mL of trastuzumab. SKBR3/TZR cells were maintained in growth medium containing 100 mg/mL of trastuzumab. SKBR3/TZR cells were repeatedly confirmed as insensitive to trastuzumab. […] The number of cells overexpressing HER2 receptors was reduced in SKBR3 cells on treatment with trastuzumab (10 mg/mL) for 72 hrs.

trastuzumab: Herceptin (trastuzumab), therapy for HER2+ breast tumors
growth of SKBR3/TZR cells with trastuzumab [1]: not inhibited | number of cells overexpressing HER2 receptors ([2]; 10 mg/mL for 72 hrs): reduced | growth of SKBR3 parental cells with trastuzumab ([2]; fresh treatment with 10 and 100 mg/mL): significantly inhibited
